# Earlier results as cited in patent US20120028252A1, “HUMAN MENA ISOFORMS SERVE AS MARKERS OF EPITHELIAL TO MESENCHYMAL TRANSITION AND SENSITIVITY TO EGFR INHIBITION IN HUMAN CANCER CELLS” (priority 2008, published 2012).
# System: hMena and hMena^+11a in breast cancer cell lines
# Settings: Herceptin treatment of breast cancer cell lines; cited from earlier work
substance,measurement,value
Herceptin: marketed drug whose treatment down-regulates hMena+11a expression in breast cancer cell lines,hMena+11a expression,down-regulates
